This passage reports Osteopontin Adhesion (% inhibition) and Vitronectin Adhesion (% inhibition) results from US20120114667A1.

This experiment concerns the target avb3 and avb5 integrins on A375M cells. As to the kind of experiment: cell-based or functional assay.

B1: 2A9.1A1 (antibody, IgG2, V domains shown)
VH: RVQLQESGPGLVKPTQTLSLTCTVSGGSIISGGYFWTWIRQHPGKGLEWIGYIYYSGSTYYSPSLKSRVTISVDTSKNQFSLKLSSVTAADTAVYYCTRAVPAAKGYYSYYGMDVWGQGTTVTVSS
VL: DIVMTQSPLSLPVTPGEPASISCRSSQSLLHSNGYNYLDWFLQKPGQSPQLLIYLGSNRASGVPDRFSGSGSGTDYTLKISRVEAEDVGVYYCMQALQTPFTFGPGTKVDIK
Turning to B1, the Osteopontin Adhesion (% inhibition) at 5 ug/ml, A375M cells is -3% and the Vitronectin Adhesion (% inhibition) at 5 ug/ml, A375M cells stood at 0%.

B2: 3C2.2A8 (antibody, IgG2, V domains shown)
VH: RVQLQESGPGLVKPTQTLSLTCTVSGGSIISGGYFWTWIRQHPGKGLEWIGYIYYSGSTYYSPSLKSRVTISVDTSKNQFSLKLSSVTAADTAVYYCTRAVPAAKGYYSYYGMDVWGQGTTVTVSS
VL: DIVMTQSPLSLPVTPGEPASISCRSSQSLLHSNGYNYLDWFLHKPGQSPQLLIYLGSNRASGVPDRFSGSGSGTDFTLKISRVEAEDVGVYYCMQALQTPFTFGPGTKVDIK
Turning to B2, the Osteopontin Adhesion (% inhibition) at 5 ug/ml, A375M cells was -3% and the Vitronectin Adhesion (% inhibition) at 5 ug/ml, A375M cells was found to be 16%.
